Source: ChEMBL document CHEMBL1909046, “DrugMatrix in vitro pharmacology data”

The chains behind the UniProt entries cited, without tags or fusion partners. Where a name states a change or a piece, a line headed by the entry shows the natural chain unless it says otherwise.
UniProt P41145: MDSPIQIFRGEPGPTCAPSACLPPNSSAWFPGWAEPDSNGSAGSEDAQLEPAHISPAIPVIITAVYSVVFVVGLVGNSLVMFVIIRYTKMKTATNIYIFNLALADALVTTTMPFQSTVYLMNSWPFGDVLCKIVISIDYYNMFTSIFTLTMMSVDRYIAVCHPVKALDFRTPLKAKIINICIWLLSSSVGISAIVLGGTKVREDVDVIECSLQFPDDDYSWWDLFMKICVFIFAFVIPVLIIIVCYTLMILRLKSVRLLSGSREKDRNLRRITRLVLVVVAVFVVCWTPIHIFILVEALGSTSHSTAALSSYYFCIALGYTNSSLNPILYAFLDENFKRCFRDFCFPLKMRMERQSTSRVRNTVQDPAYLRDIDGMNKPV
UniProt P35372, whole entry, looked up: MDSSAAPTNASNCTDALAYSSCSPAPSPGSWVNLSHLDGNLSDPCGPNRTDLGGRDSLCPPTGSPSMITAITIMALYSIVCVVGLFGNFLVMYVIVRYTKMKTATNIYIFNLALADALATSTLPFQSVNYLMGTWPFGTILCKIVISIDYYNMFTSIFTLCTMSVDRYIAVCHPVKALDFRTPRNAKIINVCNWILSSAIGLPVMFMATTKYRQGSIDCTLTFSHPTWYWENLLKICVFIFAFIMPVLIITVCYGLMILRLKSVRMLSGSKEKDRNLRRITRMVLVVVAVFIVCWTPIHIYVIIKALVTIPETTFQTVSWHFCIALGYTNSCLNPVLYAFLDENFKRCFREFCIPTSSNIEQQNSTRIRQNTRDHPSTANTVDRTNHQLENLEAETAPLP

Tests used:
[1] = molecular target: Kappa-type opioid receptor (Homo sapiens, UniProt P41145); assay: DRUGMATRIX: Opiate kappa (OP2, KOP) radioligand binding (ligand: [3H] Diprenorphine); conditions: hek293
Mu-type opioid receptor = Mu-type opioid receptor (Homo sapiens, UniProt P35372); assay: DRUGMATRIX: Opiate mu (OP3, MOP) radioligand binding (ligand: [3H] Diprenorphine); conditions: cho-k1

O=C(O)CNCP(=O)(O)O
Not Active: IC50 [1] | Ki [1] | IC50 (Mu-type opioid receptor) | Ki (Mu-type opioid receptor)

Nc1ccc(Cc2ccc(N)cc2)cc1
Not Active: IC50 [1] | Ki [1] | IC50 (Mu-type opioid receptor) | Ki (Mu-type opioid receptor)

C[C@@H]1O[C@@H](O[C@@H]2C=C3CC[C@@H]4[C@H](CC[C@]5(C)[C@@H](c6ccc(=O)oc6)CC[C@]45O)[C@@]3(C)CC2)[C@H](O)[C@H](O)[C@H]1O
Not Active: IC50 [1] | Ki [1] | IC50 (Mu-type opioid receptor) | Ki (Mu-type opioid receptor)

O=C(O)c1ccccc1O
Not Active: IC50 [1] | Ki [1] | IC50 (Mu-type opioid receptor) | Ki (Mu-type opioid receptor)

NNc1ccccc1
Not Active: IC50 [1] | Ki [1] | IC50 (Mu-type opioid receptor) | Ki (Mu-type opioid receptor)

N[C@@H](Cc1ccc(N(CCCl)CCCl)cc1)C(=O)O
Not Active: IC50 [1] | Ki [1] | IC50 (Mu-type opioid receptor) | Ki (Mu-type opioid receptor)

C1CCN2C[C@@H]3C[C@@H](CN4CCCC[C@@H]34)[C@H]2C1
Not Active: IC50 [1] | Ki [1] | IC50 (Mu-type opioid receptor) | Ki (Mu-type opioid receptor)

O=C(O)CCCc1ccc(N(CCCl)CCCl)cc1 [CHLORAMBUCIL]
Not Active: IC50 [1] | Ki [1] | IC50 (Mu-type opioid receptor) | Ki (Mu-type opioid receptor)

CCCC[C@@H](CC)COC(=O)c1ccccc1C(=O)OC[C@@H](CC)CCCC
Not Active: IC50 [1] | Ki [1] | IC50 (Mu-type opioid receptor) | Ki (Mu-type opioid receptor)

C[n+]1ccc(-c2cc[n+](C)cc2)cc1.[Cl-].[Cl-]
Not Active: IC50 [1] | Ki [1] | IC50 (Mu-type opioid receptor) | Ki (Mu-type opioid receptor)

CC[C@@H](C(=O)[C@@H](C)[C@@H](O)[C@H](C)[C@@H]1O[C@@H]([C@@H](CC)C(=O)O)CC[C@@H]1C)[C@H]1O[C@]2(C=C[C@@H](O)[C@]3(CC[C@@](C)([C@H]4CC[C@](O)(CC)[C@H](C)O4)O3)O2)[C@H](C)C[C@@H]1C
Not Active: IC50 [1] | Ki [1] | IC50 (Mu-type opioid receptor) | Ki (Mu-type opioid receptor)

O=C1C[C@@H]2OCC=C3CN4CC[C@]56c7ccccc7N1[C@H]5[C@H]2[C@H]3C[C@H]46
Not Active: IC50 [1] | Ki [1] | IC50 (Mu-type opioid receptor) | Ki (Mu-type opioid receptor)
